Laboratory results taken from paper PMC11790914, “Chemogenomics for steroid hormone receptors (NR3)” (Communications Chemistry, 2025).
Where “and” joins values, the source holds several entries; their conditions need not be identical. Equal values may be shown once. Read-outs that look alike come from different tables or passages of the source.

Amino acid sequences for entries named in this document (tags omitted).
UniProt P48730, whole entry, species assumed: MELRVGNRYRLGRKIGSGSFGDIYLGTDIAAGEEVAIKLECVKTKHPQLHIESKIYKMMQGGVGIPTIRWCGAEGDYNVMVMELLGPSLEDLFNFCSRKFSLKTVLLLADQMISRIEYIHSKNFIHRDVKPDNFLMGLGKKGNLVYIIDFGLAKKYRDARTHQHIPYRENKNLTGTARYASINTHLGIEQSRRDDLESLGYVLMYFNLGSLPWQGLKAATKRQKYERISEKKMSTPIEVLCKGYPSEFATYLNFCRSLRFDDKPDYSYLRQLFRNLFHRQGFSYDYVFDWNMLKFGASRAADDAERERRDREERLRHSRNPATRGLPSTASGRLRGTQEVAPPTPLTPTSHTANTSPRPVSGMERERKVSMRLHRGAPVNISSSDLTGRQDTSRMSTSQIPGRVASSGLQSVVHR

What was measured:
Gal4-VP16 = assay type: cell-based; details: vs. DMSO ctrl, single replicates n=1-3
[1] = tested on: NF-κB activity in HEK293 NF-κB reporter cells; assay: NF-kB activity assay (GFP reporter, ionomycin/PMA); assay type: cell-based; details: compounds at recommended concentrations, imaged over 24 h, n = 3
[2] = tested on: ATF6 activity in Hela ATF6 reporter cells; assay: Endoplasmic reticulum stress assay (ATF6 Renilla luciferase reporter, tunicamycin); assay type: cell-based; details: Homo sapiens, single replicates n=1 to n=5, read-out: ER stress [rel. ATF6 activity]
CSNK1D = target: T1, CSNK1D (Homo sapiens, UniProt P48730); assay: Liability panel screening by DSF: CSNK1D; assay type: binding; details: read-out: Mean ΔTM CSNK1D
T1 construct: made in house

TRIM24 = target: T2, TRIM24 (Homo sapiens, UniProt O15164); assay: Liability panel screening by DSF: TRIM24; assay type: binding; details: n=2
T2 construct: This panel comprised ten highly ligandable kinases and bromodomains; made in house
T2 sequence (O15164 899-1004 limits assumed): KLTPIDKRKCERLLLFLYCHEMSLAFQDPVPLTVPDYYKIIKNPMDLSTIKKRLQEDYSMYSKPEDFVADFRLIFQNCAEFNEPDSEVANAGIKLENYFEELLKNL

SMILES: C[C@]12CCC(=O)C=C1CC[C@@H]1[C@@H]2[C@@H](O)C[C@]2(C=O)[C@@H](C(=O)CO)CC[C@@H]12 [Aldosterone]
- VP16 control [fold reporter gene activity] (Gal4-VP16; 1 µM): 1.02 fold reporter gene activity and 1.01 fold reporter gene activity and 1.14 fold reporter gene activity

SMILES: Cc1c(N2C(=O)C3C(O)CCN3C2=O)ccc(C#N)c1Cl (centres unmarked) [BMS564929]
- VP16 control [fold reporter gene activity] (Gal4-VP16; 1 µM): 1.20 fold reporter gene activity and 1.05 fold reporter gene activity and 1.29 fold reporter gene activity
- NF-κB activity (inflammatory response to ionomycin/PMA) [1]: anti-inflammatory effect
- activity at 1 µM [2]: 77%

SMILES: CC(C)(c1ccc(O)cc1)c1ccc(O)cc1 [Bisphenol A]
- VP16 control [fold reporter gene activity] (Gal4-VP16; 0.3 µM): 1.17 fold reporter gene activity and 1.15 fold reporter gene activity and 1.13 fold reporter gene activity
- ΔTm at 20 µM (CSNK1D): 0.55 °C

SMILES: C[C@]12CC[C@@H]3c4ccc(O)cc4C[C@@H](CCCCCCCCC[S+]([O-])CCCC(F)(F)C(F)(F)F)[C@H]3[C@@H]1CC[C@@H]2O (some centres unmarked) [Fulvestrant]
- ΔTm at 20 µM (TRIM24): 1.64 °C

SMILES: C[C@]1(O)CC[C@H]2[C@@H]3CCC4=CC(=O)CCC4=C3C=C[C@@]21C [Methyltrienolone]
- VP16 control [fold reporter gene activity] (Gal4-VP16; 1 µM): 1.17 fold reporter gene activity and 0.94 fold reporter gene activity and 1.19 fold reporter gene activity
